From US9771370B2, “Compounds for the inhibition of indoleamine-2,3-dioxygenase” (Merck Patent GmbH, priority 2014, dated 2017) come the findings set out here.

Chains of the proteins cited; added tags and fusions are not shown.
UniProt P14902, whole entry: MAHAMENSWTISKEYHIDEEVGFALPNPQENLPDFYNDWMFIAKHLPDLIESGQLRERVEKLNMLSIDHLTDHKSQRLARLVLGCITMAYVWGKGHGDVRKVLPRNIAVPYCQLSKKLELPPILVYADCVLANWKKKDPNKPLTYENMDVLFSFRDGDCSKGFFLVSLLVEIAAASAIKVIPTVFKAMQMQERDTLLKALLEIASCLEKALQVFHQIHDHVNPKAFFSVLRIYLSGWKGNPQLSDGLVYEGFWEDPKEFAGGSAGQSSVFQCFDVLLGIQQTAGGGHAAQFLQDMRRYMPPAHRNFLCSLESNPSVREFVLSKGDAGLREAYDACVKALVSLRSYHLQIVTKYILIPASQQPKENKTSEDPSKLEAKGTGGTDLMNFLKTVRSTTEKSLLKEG

The target of this assay is Recombinant human IDO (Homo sapiens, UniProt P14902). The assay can be described thus: Bridge-IT tryptophan fluorescence assay of human IDO-1 inhibition. The note with it: read-out: Bridge-it, recombinant human IDO 7.5 nM, L-tryptophan.
Turning to `OC1CCC(C(O)CC2c3cc(F)ncc3-c3cncn32)CC1` (single isomer, unassigned), the IC50 was greater than 1 µM.

With `Fc1cc2c(cn1)-c1cncn1C2CCC1(F)CCCCC1` (single isomer, unassigned) [27a], the IC50 was greater than 1 µM.

As to `Fc1cc2c(cn1)-c1cncn1C2CCC1(F)CCCCC1` (single isomer, unassigned) [27b], the IC50 is 0.1 to 1 µM.
